Molecular target: Glutamate NMDA receptor
Assay: Tested for the ability to inhibit [3H]MK-801 binding to NMDA receptor of rat cortical membranes in the presence of glutamate (1 uM)

IC50: 40.3 µM
SMILES: O=C(O)c1cc(=O)c2ccccc2[nH]1 [TRANSTORINE]
